Source: PubChem BioAssay AID624417 (National Center for Advancing Translational Sciences (NCATS), 2012)
Where “and” joins values, the source holds several entries; their conditions need not be identical. Equal entries are not always repeated. Only a part is listed here, and it is no random draw. Some results for these compounds are left out of this collection, so the calls shown say nothing about other tests. Inconclusive results are not listed. Calls of active or inactive are those of the source. Calls come from the whole dose curve; as a rule, active = well fitted inhibition curve with a large enough effect; inconclusive = small, poorly fitted or top-dose-only effect; inactive = no such curve, though single readings can be large or run the other way.

Sequences of proteins named here, by UniProt entry; tags and fusion partners are left off.
UniProt P43220, whole entry: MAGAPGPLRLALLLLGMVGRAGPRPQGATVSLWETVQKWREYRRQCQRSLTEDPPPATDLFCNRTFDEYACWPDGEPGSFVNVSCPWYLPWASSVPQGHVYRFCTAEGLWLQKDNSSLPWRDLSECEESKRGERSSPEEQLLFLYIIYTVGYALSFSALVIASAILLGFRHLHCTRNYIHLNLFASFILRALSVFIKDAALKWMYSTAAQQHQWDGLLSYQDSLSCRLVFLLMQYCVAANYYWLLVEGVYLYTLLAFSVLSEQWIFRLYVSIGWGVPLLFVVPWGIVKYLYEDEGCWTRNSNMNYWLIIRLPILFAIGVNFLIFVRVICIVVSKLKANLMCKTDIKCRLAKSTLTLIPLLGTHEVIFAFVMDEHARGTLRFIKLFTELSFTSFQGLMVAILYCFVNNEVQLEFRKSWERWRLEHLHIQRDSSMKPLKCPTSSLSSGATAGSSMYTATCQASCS

Target: Glucagon-like peptide 1 receptor (Homo sapiens) (UniProt P43220)
Assay: qHTS of GLP-1 Receptor Inverse Agonists (Inhibition Mode); note: nearly all actives have a fitted effect of over 55% in size
Settings: HEK293 GLP-1R CRE-luciferase, luminescence, 24 h, GLP-1R form is constitutively active; at 38.3 µM (top of the series)
% is set by controls: 0 for no effect and ±100 for the full control effect.

Row | SMILES | activity change, negative = inhibition
1 | COc1cc(C(=O)NCC2(N(C)C)CCCCC2)c([N+](=O)[O-])cc1OC | inactive: -1.35%
2 | CN(C)C1(CNC(=O)c2ccc(Br)cc2)CCCCC1 | inactive: -37.5%
3 | O=C(NCC1(N2CCCCC2)CCCCC1)c1cccc(Cl)c1 | inactive: -6.09%
4 | COc1ccc(C(=O)NCC2(N(C)C)CCCCC2)cc1Cl | inactive: -21%
5 | COc1ccc(Cl)cc1C(=O)NCC1(N(C)C)CCCCC1 | inactive: -19.9%
6 | COc1cccc(C(=O)NCC2(N3CCCCC3)CCCCC2)c1 | inactive: 12.6%
7 | COc1cccc(C(=O)NCC2(N3CCOCC3)CCCCC2)c1 | inactive: 15.2%
8 | CN(C)c1cccc(C(=O)NCC2(N(C)C)CCCCC2)c1 | inactive: 0.49%
9 | O=C(OCCN1CCCC1)C(O)(c1ccccc1)c1ccccc1 | inactive: 4.1%
10 | CC(C)Oc1ccc(C(=O)NCC2(N(C)C)CCCCC2)cc1 | inactive: -4.02% and inactive: -7.11%
11 | COc1ccc(Br)c(C(=O)NCC2(N3CCCCC3)CCCCC2)c1 | inactive: -20.1%
12 | Cc1cccc(C(=O)NCC2(N(C)C)CCCCC2)c1 | inactive: -18%
13 | COc1cc(C(=O)NCC2(N(C)C)CCCCC2)cc(OC)c1OC | inactive: 9.15%
14 | C=C(C)C#CC(O)(C(=O)OC1CCN(C)CC1)c1ccccc1 (stereo unspecified) | inactive: 9.81%
15 | CN1[C@@H]2CC[C@H]1CC(OC(=O)C(O)(c1ccccc1)c1ccccc1)C2 (stereo partly specified) | inactive: -28.4%
16 | O=C(NCC1(N2CCCCC2)CCCCC1)c1cc([N+](=O)[O-])ccc1Cl | inactive: -24.5%

Row | SMILES | activity change, negative = inhibition
17 | CN(C)C1(CNC(=O)c2ccccc2F)CCCCC1 | inactive: 3.72%
18 | Cc1ccc(C(=O)NCC2(N3CCCCC3)CCCCC2)cc1 | inactive: -1.26%
19 | CC(C)N1C(=O)CC2(CCN(CCOC(=O)C(O)(c3ccccc3)c3ccccc3)CC2)C1=O | inactive: -6.6%
20 | COc1cc(SC)ccc1C(=O)NCC1(N(C)C)CCCCC1 | inactive: 2.92%
21 | CCCCOc1ccccc1C(=O)NCC1(N(C)C)CCCCC1 | inactive: -18.8%
22 | CN(C)c1ccc(C(=O)NCC2(N(C)C)CCCCC2)cc1 | inactive: -20.5%
23 | CN(C)C1CCCC1OC(=O)C(O)(c1ccccc1)c1ccccc1 (stereo unspecified) | inactive: -9.3%
24 | Cc1ccccc1C(=O)NCC1(N2CCCCC2)CCCCC1 | inactive: 7.95%
25 | CN(C)C1(CNC(=O)c2ccccc2[N+](=O)[O-])CCCCC1 | inactive: -6.37%
26 | O=C(NCC1(N2CCCCC2)CCCCC1)c1cccc(Br)c1 | inactive: 10.5%
27 | Cc1cc(C(=O)NCC2(N3CCCCC3)CCCCC2)ccc1[N+](=O)[O-] | inactive: 12.8%
28 | CCOc1cccc(C(=O)NCC2(N(C)C)CCCCC2)c1 | inactive: -12.5%
29 | COc1ccc(C(=O)NCC2(N(C)C)CCCCC2)cc1 | inactive: 4.38%
30 | O=C(NCC1(N2CCCCC2)CCCCC1)c1cc(F)c(F)cc1Cl | inactive: 3.4%
31 | C=CCN1CCN(CCOC(=O)C(O)(c2ccccc2)c2ccccc2)CC1 | inactive: 0.905%
